# Measurements published in PMC7202735 (Journal of medicinal chemistry, 2018).
# Columns and labels:
# HOS cells = assay: Wound healing scratch assay, HOS; type: cell-based, human; conditions: 5 μM, 10 hours
# 143B cells = assay: Wound healing scratch assay, 143B; type: cell-based, human; conditions: 5 μM, 10 hours
# MG63 cells = assay: Wound healing scratch assay, MG63; type: cell-based, human; conditions: 5 μM, 10 hours
Structure (SMILES),wound healing: ratio of wound remaining in treatment to wound remaining in control (HOS cells),total cell viability (143B metastatic OS cells),wound healing: ratio of wound remaining in treatment to wound remaining in control (143B cells),wound healing: ratio of wound remaining in treatment to wound remaining in control (MG63 cells)
"CC/C=C\C/C=C\C/C=C\C/C=C\CC1OC1C/C=C\CCC(=O)NCCO (stereo not shown) [7,8-EDP-EA]",not significant,reduced total cell viability,do not inhibit wound healing,a similar trend was seen
"CC/C=C\C/C=C\C/C=C\CC1OC1C/C=C\C/C=C\CCC(=O)NCCO (stereo not shown) [10,11-EDP-EA, (4Z,7Z)-N-(2-hydroxyethyl)-9-(3-((2Z,5Z,8Z)-undeca-2,5,8-trien-1-yl)oxiran-2-yl)nona-4,7-dienamide]",–,reduced total cell viability,inhibits wound closure significantly,twice as much as the control
"CC/C=C\C/C=C\CC1OC1C/C=C\C/C=C\C/C=C\CCC(=O)NCCO (stereo not shown) [13,14-EDP-EA]",not significant,reduced total cell viability,do not inhibit wound healing,restricted at 10h but not at 6h
"CC/C=C\CC1OC1C/C=C\C/C=C\C/C=C\C/C=C\CCC(=O)NCCO (stereo not shown) [16,17-EDP-EA]",–,less effective,–,–
"CCC1OC1C/C=C\C/C=C\C/C=C\C/C=C\C/C=C\CCC(=O)NCCO (stereo not shown) [19,20-EDP-EA]",–,less effective,–,–
